Most compounds without a hit are left out; they make up all but 2.8% or so of the library.
C2C12 statin: suppression of simvastatin myotoxicity; C2C12 myotubes + simvastatin, ATP luminescence, 48 h; scaled: DMSO 0, geranylgeraniol control 100; rescue of ATP level, % at 7.49 µM; hit rate 0.78% among 330,000; AID 602340;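 active = mean ATP rescue above about 67%, or every replicate alone reaching that limit, limit read from the data, passing the limit was not always enough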;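 note: myotubes were challenged with 10 µM simvastatin during compound exposure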
esBAF inh: SWI/SNF esBAF complex inhibition; reporter increase, % at 12.5 µM; hit rate 2% among 350,000; mouse ES cells, Bmi1-luciferase knock-in reporter, 24 h; 100% = twice the neutral-well signal; in the data active = activation above about 40%;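 note: 0% = median of the plate's neutral control wells and 100% = double that signal; a rise in the Bmi1 reporter signal indicates esBAF inhibition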
E-selectin induc: E-selectin induction on HUVECs; P16581; HUVEC E-selectin immunofluorescence imaging; normalized: neutral wells 0, TNF-alpha wells 100; activation, % at 7.58 µM; hit rate 0.37% among 260,000; AID 686992;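 active = mean E-selectin-positive cell signal at least 10% of the positive control, reached in at least 60% of replicates, without over 20% cell loss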
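Read-out: % PE-positive cells | Test system: HUVEC | Doses: One compound dose added by pin transfer | Buffer or medium: EGM-2 over gelatin coat | Signal: Immunofluorescence imaging | Benchmarks: TNF-alpha, DMSO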
PglD DTNB: blocks C. jejuni PglD acetyltransferase activity. inhibition, % at 12.5 µM. purified PglD enzyme, DTNB colorimetric CoA detection. hit rate 0.098% among 360,000; in the data active = inhibition above about 16%, passing the limit was not always enough
PGC1a acetyl inh: modulators of PGC1a acetylation; U2OS PGC1a acetylation, AlphaScreen anti-acetyl-lysine; with virally co-expressed GCN5 acetyltransferase; inhibition, % at 15.6 µM; hit rate 0.17% among 350,000; AID 651687;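 active = every replicate shows inhibition of at least 40%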;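 note: 0% = neutral control wells and 100% = positive control wells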
UUG fidelity: modulators of start codon recognition fidelity in yeast; AID 602363; activity score, % at 18.7 µM; S. cerevisiae UUG-firefly luciferase reporter, luminescence/redox ratio; 0.13% of 350,000 active;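 active = replicate mean at a twofold rise or more, about +100% in these data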;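 note: firefly luciferase made from a UUG start codon reports start codon fidelity; reporter light over untreated wells divided by growth signal over untreated wells; some hits fall short of that in this replicate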
An asterisk follows results filed as active; . = no result given.

canonical_smiles | C2C12 statin | UUG fidelity | PglD DTNB | E-selectin induc | PGC1a acetyl inh | esBAF inh
C[C@@H]1CN([C@H](C)CO)C(=O)c2cc(NC(=O)Cc3ccccc3)ccc2O[C@H]1CN(C)C(=O)NC1CCCCC1 | 10 | 25 | -1 | 71* | -4 | -1
C[C@@H]1CCCCO[C@H](CN(C)Cc2ccccc2)[C@H](C)CN([C@H](C)CO)C(=O)c2cc(NC(=O)Nc3ccc(F)cc3)ccc2O1 | . | 13 | -3 | 0 | -8 | 4
OCCN(Cc1ccccc1)CC1CCCCC1 | -3 | -25 | 0 | . | 57* | 4
O=C(Nc1ccccc1)SC1CCCCC1 | 1 | -7 | 1 | 0 | -1 | 83*
O=C(Nc1ccccc1)N1CCCC2CCCCC21 (stereo not drawn) | . | -14 | 5 | . | 1 | 52*
CC1CCCCC1Nc1nc2ccc(Cl)cc2n2cnnc12 (stereo not drawn) | 98* | -11 | -2 | 0 | 11 | -6
CCOc1cc(C(=O)Nc2cccc3ncccc23)cc(OCC)c1OCC | 107* | 9 | 3 | . | -9 | 2
COc1cccc(NC(=O)N[C@@H]2C=C[C@H](CC(=O)N3CCOCC3)O[C@@H]2CO)c1 | . | . | . | 0 | -1 | .
Cc1ccc(S(=O)(=O)N(CC(=O)NCc2ccncc2)Cc2ccccc2F)cc1 | 1 | 0 | 1 | 0 | 14 | 1
Cc1ccc(S(=O)(=O)N(CC(=O)NCc2ccco2)Cc2ccccc2F)cc1 | 67* | 4 | 7 | . | -1 | 2
O=C(CN(Cc1ccc(F)cc1)C(=O)CNS(=O)(=O)c1ccc(F)cc1)NCc1ccco1 | 5 | -17 | 1 | 30* | . | -1
CCOc1ccc(C2C(C(=O)c3ccco3)=C(O)C(=O)N2CCCn2ccnc2)cc1 (stereo not drawn) | -3 | -13 | 0 | . | 3 | 54*

Continuation:
canonical_smiles | C2C12 statin | UUG fidelity | PglD DTNB | E-selectin induc | PGC1a acetyl inh | esBAF inh
CCOc1ccc(C2C(C(=O)c3ccco3)=C(O)C(=O)N2CCCn2ccnc2)cc1OCC (stereo not drawn) | 0 | -16 | -2 | 0 | -17 | 21
C=CCOc1cccc(C2C(C(=O)c3ccco3)=C(O)C(=O)N2Cc2cccnc2)c1 (stereo not drawn) | 4 | -17 | 0 | 33* | 11 | -7
CCOC(=O)c1ccc2c(c1)NCc1cccc(OC)c1O2 | 2 | -14 | 1 | 1 | . | 58*
O=C(O)c1cccc(N/N=C/c2sc(N3CCOCC3)nc2-c2ccccc2)c1 | -4 | 15 | . | . | -3 | 48*
Cc1n[nH]c(=O)n1-c1ccc(OCc2ccccc2)cc1 | -1 | 6 | -2 | . | -9 | 44*
COc1ccc(-n2c(C)n[nH]c2=O)cc1 | 4 | -20 | -2 | . | 3 | -1
N#CC(=C1Nc2ccccc2N1)S(=O)(=O)c1ccccc1 | 108* | -15 | 5 | 0 | -21 | -2
Cc1cc(=O)[nH]c(NN=Cc2cc(Br)ccc2O)n1 | -21 | -16 | 3 | 0 | 50* | -45
CSc1nc2nccc(-c3ccc(Cl)cc3)n2n1 | 5 | -19 | 6 | . | 5 | -5
CSc1nc2nccc(/C=C\c3ccccc3)n2n1 | -6 | -5 | 1 | . | 50* | 5
CCCN(C)C[C@H]1Oc2cc(C#CCC3CCCC3)ccc2S(=O)(=O)N([C@H](C)CO)C[C@H]1C | 12 | . | . | 0 | 4 | -8
CN(C)CC(=O)Nc1ccc2c(c1)[C@H]1C[C@H](CC(=O)NC3CCCC3)O[C@@H](CO)[C@H]1O2 | 0 | -8 | 1 | -1 | 0 | 3

Compound profiles, as listed above. Values in the order: C2C12 statin | UUG fidelity | PglD DTNB | E-selectin induc | PGC1a acetyl inh | esBAF inh
Listed for `Cc1n[nH]c(=O)n1-c1ccc(OCc2ccccc2)cc1` → -1 | 6 | -2 | . | -9 | 44*
Listed for `O=C(O)c1cccc(N/N=C/c2sc(N3CCOCC3)nc2-c2ccccc2)c1` → -4 | 15 | . | . | -3 | 48*

(list continues)
canonical_smiles | C2C12 statin | UUG fidelity | PglD DTNB | E-selectin induc | PGC1a acetyl inh | esBAF inh
CCCCCCN1Cc2ccccc2C1 | 106* | -3 | -2 | . | -1 | 6
CN(C)S(=O)(=O)c1ccc(C(=O)NCCOc2ccccc2)cc1 | . | -13 | 0 | . | 5 | .
CN(C)S(=O)(=O)c1ccc(C(=O)NCCOc2ccc(F)cc2)cc1 | 146* | -20 | 8 | . | 6 | 61*
C[C@@H]1CN([C@@H](C)CO)C(=O)c2cc(NC(=O)C3CCCCC3)ccc2O[C@@H](C)CCCCO[C@H]1CN(C)C(=O)c1ccncc1 | 17 | . | . | 0 | 10 | -4
O=S(=O)(c1ccc(Cl)s1)N1CCCc2cccc(O)c21 | -4 | -22 | -6 | . | -14 | 84*
C[C@@H]1CN([C@H](C)CO)C(=O)Cc2cc(NS(=O)(=O)c3ccc(Cl)cc3)ccc2O[C@H]1CN(C)Cc1ccc(Cl)c(Cl)c1 | 91* | -9 | -3 | 0 | -5 | 6

Some values from the results shown.
O=S(=O)(c1ccc(Cl)s1)N1CCCc2cccc(O)c21 @ C2C12 statin: -4
CN(C)S(=O)(=O)c1ccc(C(=O)NCCOc2ccc(F)cc2)cc1 @ PglD DTNB: 8

Source: PubChem (Broad Institute)
